species: Homo sapiens; assay: Selectivity index, ratio of IC50 for human recombinant MAO-A to IC50 for human recombinant MAO-B

Row | Ratio IC50 | Compound
1 | > 1960 | COc1cccc(-c2cc(C3=CS(=O)(=O)c4ccccc4C3=O)on2)c1
2 | > 4330 | O=C1C(c2cc(-c3ccccc3C(F)(F)F)no2)=CS(=O)(=O)c2ccccc21
3 | > 5240 | O=C1C(c2cc(-c3cccc(C(F)(F)F)c3)no2)=CS(=O)(=O)c2ccccc21
4 | > 10000 | COc1ccc(-c2cc(C3=CS(=O)(=O)c4ccccc4C3=O)on2)cc1
5 | > 315 | O=C1C(c2cc(-c3ccc(C(F)(F)F)cc3)no2)=CS(=O)(=O)c2ccccc21
6 | > 10000 | O=C1C(c2cc(-c3ccc(Cl)cc3)no2)=CS(=O)(=O)c2ccccc21
7 | > 10000 | O=c1c(-c2cc(-c3ccccc3C(F)(F)F)no2)csc2ccccc12

From ChEMBL document CHEMBL5537125, “Discovery of C-3 isoxazole substituted thiochromone S,S-dioxide derivatives as potent and selective inhibitors for monoamine oxidase B (MAO-B)” (Eur J Med Chem, 2024)
